Test results taken from article PMC10380293 (International Journal of Molecular Sciences, 2023).

Molecular target: mScarlet-I-PCNA (human, UniProt P12004 1-261)
Test: FRET or BRET; 1 µM p15-mNeonGreen (donor) with 0-3.09 µM mScarlet-I-PCNA (acceptor, protomer concentration) in PBS with 1 mM DTT, 37 °C for 1 h, 384 well plate; sensitized emission by the three-channel method, control mNeonGreen/mScarlet-I-PCNA subtracted; apparent for C148S
Details: both partners purified

B1: p15-mNeonGreen (natural protein, UniProt Q15004 1-111, looked up)
chain: MVRTKADSVPGTYRKVVAARAPRKVLGSSTSATNSTSVSSRKAENKYAGGNPVCVRPTPKWQKGIGEFFRLSPKDSEKENQIPEEAGSSGLGKAKRKACPLQPDHTNDEKE
Kd: 431 nM
